The target of the assay is Recombinant human cathepsin S (CatS) (Homo sapiens, UniProt P25774). The assay can be described thus: biochemical.

Amino acid sequences for entries named in this document (tags omitted). Residues count along the entry.
UniProt P25774, 115-331: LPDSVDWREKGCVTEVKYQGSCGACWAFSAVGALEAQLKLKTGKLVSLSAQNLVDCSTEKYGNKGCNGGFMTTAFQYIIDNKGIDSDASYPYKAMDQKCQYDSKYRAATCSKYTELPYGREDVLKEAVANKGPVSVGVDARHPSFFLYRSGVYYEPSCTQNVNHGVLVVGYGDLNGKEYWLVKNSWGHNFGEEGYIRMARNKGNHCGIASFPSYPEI

Some results are limits rather than exact numbers.

In patent US20090099157A1, “TETRAHYDRO-PYRAZOLO-PYRIDINE THIOETHER MODULATORS OF CATHEPSIN S” (priority 2007, published 2009) one finds IC50 data, which are given here for 22 compounds.

As usually defined, the IC50 is the point on the concentration scale where inhibition reaches its midpoint.

With `CS(=O)(=O)N1CCc2c(c(-c3ccc(C(F)(F)F)c(SCCN4CCOCC4)c3)nn2CC(O)CN2CCC[C@@H](O)C2)C1` (stereo partly drawn) [Example 405, (3R)-1-{2-Hydroxy-3-[5-(methylsulfonyl)-3-{3-[(2-morpholin-4-ylethyl)sulfanyl]-4-(trifluoromethyl)phenyl}-4,5,6,7-tetrahydro-1H-pyrazolo[4,3-c]pyridin-1-yl]propyl}piperidin-3-ol], the IC50 was 0.77 µM.

Turning to `CC1CCN(CCSc2cc(-c3nn(C[C@@H](O)CN4CCC(C)(C)CC4)c4c3CN(S(C)(=O)=O)CC4)ccc2C(F)(F)F)CC1` [Example 540, (2S)-1-(4,4-Dimethylpiperidin-1-yl)-3-{3-[3-{[2-(4-methylpiperidin-1-yl)ethyl]sulfanyl}-4-(trifluoromethyl)phenyl]-5-(methylsulfonyl)-4,5,6,7-tetrahydro-1H-pyrazolo[4,3-c]pyridin-1-yl}propan-2-ol], the IC50 was 0.18 µM.

As for `CS(=O)(=O)N1CCc2c(c(-c3ccc(C(F)(F)F)c(SCC(=O)N4CCOCC4)c3)nn2CC(O)CN2CCC(N3CCOCC3)CC2)C1` (stereo not shown) [Example 260, 1-[5-(Methylsulfonyl)-3-{3-[(2-morpholin-4-yl-2-oxoethyl)sulfanyl]-4-(trifluoromethyl)phenyl}-4,5,6,7-tetrahydro-1H-pyrazolo[4,3-c]pyridin-1-yl]-3-(4-morpholin-4-ylpiperidin-1-yl)propan-2-ol], the half-maximal inhibitory concentration (IC50) turned out to be 0.07 µM.

`CC(C)(C)C1CCN(CC(O)Cn2nc(-c3ccc(C(F)(F)F)c(SCC(=O)N4CCCC4)c3)c3c2CCNC3)CC1` (stereo not shown) [Example 269, 1-[4-(1,1-Dimethylethyl)piperidin-1-yl]-3-(3-{3-[(2-oxo-2-pyrrolidin-1-ylethyl)sulfanyl]-4-(trifluoromethyl)phenyl}-4,5,6,7-tetrahydro-1H-pyrazolo[4,3-c]pyridin-1-yl)propan-2-ol]: the IC50 was found to be 0.63 µM.

For the compound `CS(=O)(=O)N1CCc2c(c(-c3ccc(C(F)(F)F)c(SCCN4CCC(N5CCCC5)CC4)c3)nn2CC(O)CN2CCC(Oc3ncccn3)CC2)C1` (stereo not shown) [Example 884, 1-{5-(Methylsulfonyl)-3-[3-{[2-(4-pyrrolidin-1-ylpiperidin-1-yl)ethyl]sulfanyl}-4-(trifluoromethyl)phenyl]-4,5,6,7-tetrahydro-1H-pyrazolo[4,3-c]pyridin-1-yl}-3-[4-(pyrimidin-2-yloxy)piperidin-1-yl]propan-2-ol], the IC50 was determined as 0.63 µM.

On to `CS(=O)(=O)NC1CCN(CC(O)Cn2nc(-c3ccc(C(F)(F)F)c(SCCN4CCCCC4)c3)c3c2CCN(S(C)(=O)=O)C3)CC1` (stereo not shown) [Example 710, N-(1-{2-Hydroxy-3-[5-(methylsulfonyl)-3-{3-[(2-piperidin-1-ylethyl)sulfanyl]-4-(trifluoromethyl)phenyl}-4,5,6,7-tetrahydro-1H-pyrazolo[4,3-c]pyridin-1-yl]propyl}piperidin-4-yl)methanesulfonamide], for which the IC50 is 0.12 µM.

Take `COc1ccccc1C1CCN(CC(O)Cn2nc(-c3ccc(C(F)(F)F)c(SCCN4CCCCC4)c3)c3c2CCN(C)C3)CC1` (stereo not shown) [Example 541, 1-{4-[2-(Methyloxy)phenyl]piperidin-1-yl}-3-(5-methyl-3-{3-[(2-piperidin-1-ylethyl)sulfanyl]-4-(trifluoromethyl)phenyl}-4,5,6,7-tetrahydro-1H-pyrazolo[4,3-c]pyridin-1-yl)propan-2-ol]: the IC50 came to 0.2 µM.

In the case of `CCOc1ccccc1N1CCN(CC(O)Cn2nc(-c3ccc(C(F)(F)F)c(SCCN4CCC(F)(F)C4)c3)c3c2CCNC3)CC1` (stereo not shown) [Example 629, 1-{3-[3-{[2-(3,3-Difluoropyrrolidin-1-yl)ethyl]sulfanyl}-4-(trifluoromethyl)phenyl]-4,5,6,7-tetrahydro-1H-pyrazolo[4,3-c]pyridin-1-yl}-3-{4-[2-(ethyloxy)phenyl]piperazin-1-yl}propan-2-ol], the IC50 was determined as 1.16 µM.

With `O=C(CSc1cc(-c2nn(CC(O)CN3CCC(N4CCCC4)CC3)c3c2CNCC3)ccc1C(F)(F)F)N1CCOCC1` (stereo not shown) [Example 360, 1-(3-{3-[(2-Morpholin-4-yl-2-oxoethyl)sulfanyl]-4-(trifluoromethyl)phenyl}-4,5,6,7-tetrahydro-1H-pyrazolo[4,3-c]pyridin-1-yl)-3-(4-pyrrolidin-1-ylpiperidin-1-yl)propan-2-ol], the IC50 stood at 7.54 µM.

On to `CS(=O)(=O)N1CCc2c(c(-c3ccc(C(F)(F)F)c(SCCN4CCCC(CO)C4)c3)nn2CCCN2CCC(N3CCCC3=O)CC2)C1` (stereo not shown) [Example 13, 1-{1-[3-(3-{3-[2-(3-Hydroxymethyl-piperidin-1-yl)-ethylsulfanyl]-4-trifluoromethyl-phenyl}-5-methanesulfonyl-4,5,6,7-tetrahydro-pyrazolo[4,3-c]pyridin-1-yl)-propyl]-piperidin-4-yl}-pyrrolidin-2-one], for which the IC50 came to 0.15 µM.

With `CC(C)N(C)CCSc1cc(-c2nn(CCCN3CCCCC3)c3c2CN(S(C)(=O)=O)CC3)ccc1C(F)(F)F` [Example 314, N-Methyl-N-[2-({5-[5-(methylsulfonyl)-1-(3-piperidin-1-ylpropyl)-4,5,6,7-tetrahydro-1H-pyrazolo[4,3-c]pyridin-3-yl]-2-(trifluoromethyl)phenyl}sulfanyl)ethyl]propan-2-amine], the IC50 stood at 2.9 µM.

Regarding `CC1(O)CCN(C[C@H](O)Cn2nc(-c3ccc(C(F)(F)F)c(SCCN4CCC5CCCCC5C4)c3)c3c2CCN(S(C)(=O)=O)C3)CC1` (stereo partly drawn) [Example 197, 1-[(2S)-2-Hydroxy-3-[5-(methylsulfonyl)-3-[3-{[2-(octahydroisoquinolin-2(1H)-yl)ethyl]sulfanyl}-4-(trifluoromethyl)phenyl]-4,5,6,7-tetrahydro-1H-pyrazolo[4,3-c]pyridin-1-yl}propyl]-4-methylpiperidin-4-ol], the IC50 was 0.27 µM.

For the compound `CS(=O)(=O)N1CCc2c(c(-c3ccc(C(F)(F)F)c(SCCN4CCOCC4)c3)nn2CC(O)CN2CCCC2)C1` (stereo not shown) [Example 328, 1-[5-(Methylsulfonyl)-3-{3-[(2-morpholin-4-ylethyl)sulfanyl]-4-(trifluoromethyl)phenyl}-4,5,6,7-tetrahydro-1H-pyrazolo[4,3-c]pyridin-1-yl]-3-pyrrolidin-1-ylpropan-2-ol], the IC50 was 0.83 µM.

With `CC1CCN(CCSc2cc(-c3nn(CC(O)CN4CCCCC4)c4c3CN(C(=O)C(N)=O)CC4)ccc2C(F)(F)F)CC1` (stereo not shown) [Example 362, 2-{1-(2-Hydroxy-3-piperidin-1-ylpropyl)-3-[3-{[2-(4-methylpiperidin-1-yl)ethyl]sulfanyl}-4-(trifluoromethyl)phenyl]-1,4,6,7-tetrahydro-5H-pyrazolo[4,3-c]pyridin-5-yl}-2-oxoacetamide], the IC50 was determined as 0.1 µM.

Regarding `CS(=O)(=O)N1CCc2c(c(-c3ccc(C(F)(F)F)c(SCCNCc4cccs4)c3)nn2CCCN2CCC(N3CCCC3=O)CC2)C1` [Example 42, 1-(1-{3-[5-Methanesulfonyl-3-(3-{2-[(thiophen-2-ylmethyl)-amino]-ethylsulfanyl}-4-trifluoromethyl-phenyl)-4,5,6,7-tetrahydro-pyrazolo[4,3-c]pyridin-1-yl]-propyl}-piperidin-4-yl)-pyrrolidin-2-one], the IC50 was 0.38 µM.

Regarding `CS(=O)(=O)N1CCc2c(c(-c3ccc(C(F)(F)F)c(SCCN4CCCC(CO)C4)c3)nn2CC(O)CN2CCN(c3ccccc3)CC2)C1` (stereo not shown) [Example 773, 1-{3-[3-({2-[3-(Hydroxymethyl)piperidin-1-yl]ethyl}sulfanyl)-4-(trifluoromethyl)phenyl]-5-(methylsulfonyl)-4,5,6,7-tetrahydro-1H-pyrazolo[4,3-c]pyridin-1-yl}-3-(4-phenylpiperazin-1-yl)propan-2-ol], the IC50 was 0.065 µM.

As to `CS(=O)(=O)N1CCc2c(c(-c3ccc(C(F)(F)F)c(SCCN4CCCC(CO)C4)c3)nn2CC(O)CN2CCN(c3ccccc3C#N)CC2)C1` (stereo not shown) [Example 855, 2-[4-(2-Hydroxy-3-{3-[3-({2-[3-(hydroxymethyl)piperidin-1-yl]ethyl}sulfanyl)-4-(trifluoromethyl)phenyl]-5-(methylsulfonyl)-4,5,6,7-tetrahydro-1H-pyrazolo[4,3-c]pyridin-1-yl}propyl)piperazin-1-yl]benzonitrile], the IC50 was determined as 0.03 µM.

As to `CC(=O)N1CCc2c(c(-c3ccc(C(F)(F)F)c(SCC(=O)N4CCCC4)c3)nn2CC(O)CN2CCC(C(C)(C)C)CC2)C1` (stereo not shown) [Example 278, 1-(5-Acetyl-3-{3-[(2-oxo-2-pyrrolidin-1-ylethyl)sulfanyl]-4-(trifluoromethyl)phenyl}-4,5,6,7-tetrahydro-1H-pyrazolo[4,3-c]pyridin-1-yl)-3-[4-(1,1-dimethylethyl)piperidin-1-yl]propan-2-ol], the IC50 stood at 0.1 µM.

Turning to `CS(=O)(=O)N1CCc2c(c(-c3ccc(C(F)(F)F)c(SCCN4CCC(F)CC4)c3)nn2C[C@@H](O)CN2CCC(F)CC2)C1` [Example 503, (2S)-1-(4-Fluoropiperidin-1-yl)-3-{3-[3-{[2-(4-fluoropiperidin-1-yl)ethyl]sulfanyl}-4-(trifluoromethyl)phenyl]-5-(methylsulfonyl)-4,5,6,7-tetrahydro-1H-pyrazolo[4,3-c]pyridin-1-yl}propan-2-ol], the IC50 turned out to be 0.17 µM.

Consider `O=C1CCCN1C1CCN(CC(O)Cn2nc(-c3ccc(C(F)(F)F)c(SCCN4CCCC(O)C4)c3)c3c2CCNC3)CC1` (stereo not shown) [Example 419, 1-[1-(2-Hydroxy-3-{3-[3-{[2-(3-hydroxypiperidin-1-yl)ethyl]sulfanyl}-4-(trifluoromethyl)phenyl]-4,5,6,7-tetrahydro-1H-pyrazolo[4,3-c]pyridin-1-yl}propyl)piperidin-4-yl]pyrrolidin-2-one], for which the IC50 amounted to 2.53 µM.

Turning to `CC(=O)N1CCN(CC(O)Cn2nc(-c3ccc(C(F)(F)F)c(SCCN4CCCCC4)c3)c3c2CCNC3)CC1` (stereo not shown) [Example 308, 1-(4-Acetylpiperazin-1-yl)-3-(3-{3-[(2-piperidin-1-ylethyl)sulfanyl]-4-(trifluoromethyl)phenyl}-4,5,6,7-tetrahydro-1H-pyrazolo[4,3-c]pyridin-1-yl)propan-2-ol], the half-maximal inhibitory concentration (IC50) is more than 20 µM.

For the compound `O[C@@H](CN1CCC(c2cccc(Cl)c2)CC1)Cn1nc(-c2ccc(C(F)(F)F)c(SCCN3CCC(F)CC3)c2)c2c1CCNC2` [Example 579, (2S)-1-[4-(3-Chlorophenyl)piperidin-1-yl]-3-{3-[3-{[2-(4-fluoropiperidin-1-yl)ethyl]sulfanyl}-4-(trifluoromethyl)phenyl]-4,5,6,7-tetrahydro-1H-pyrazolo[4,3-c]pyridin-1-yl}propan-2-ol], the IC50 stood at 0.12 µM.
